Experiments:
[1] = tested on: LEF/TCF transcription factor reporter (TOPFlash); assay: TOPFlash reporter assay in HEK293 cells; type: cell-based; details: Homo sapiens, HEK293, read-out: TopFlash assay: IC50
Method: (§1) To obtain a Frizzled1-GFP stable cell line (Fzd1GFP-U2OS), U2OS cells were transfected with pCS2ratFrizzled1-GFP and pLKO.1 (10:1 ratio by weight), using the Nucleofection transfection protocol from Amaxa, and stable receptor expressing clones were selected using 1.5 μg/mL puromycin in the culture medium. For generating TOPFlash stable cell lines, HEK293 cells were transfected with p8xTOPFlash, the Renilla luciferase plasmid, and pLKO.1 at a ratio by weight of 10:3:1 and stable clones selected using 1 μg/mL puromycin in the growth medium. pLKO.1 was used to confer puromycin resistance to the stable clones.
For the TOPFlash Luciferase assay the TOPFlash stable cells were seeded in 150 μL growing medium/well in 96-well plates at 100% confluency. Fifty microliters of conditioned medium containing the chemical compounds to be tested or DMSO were added to each well. […] Thirty microliters of cell lysate were used for measuring luciferase activity in a 96-well plate reader (FluoStar Optima, BMG Labtech, Chicago, Ill.).
LEF/TCF transcription factor reporter (TOPFlash) assay is a general readout for canonical Wnt signaling pathways. […]
The average TOPFlash reporter activity of Wnt3A plus DMSO treatment was set as 100%, and the relative reporter activity of Wnt3A plus the indicated concentration of niclosmide was calculated and plotted. […]

Sequences of proteins named here, by UniProt entry; tags and fusion partners are left off. Residues count along the entry.
UniProt Q08463, 69-641: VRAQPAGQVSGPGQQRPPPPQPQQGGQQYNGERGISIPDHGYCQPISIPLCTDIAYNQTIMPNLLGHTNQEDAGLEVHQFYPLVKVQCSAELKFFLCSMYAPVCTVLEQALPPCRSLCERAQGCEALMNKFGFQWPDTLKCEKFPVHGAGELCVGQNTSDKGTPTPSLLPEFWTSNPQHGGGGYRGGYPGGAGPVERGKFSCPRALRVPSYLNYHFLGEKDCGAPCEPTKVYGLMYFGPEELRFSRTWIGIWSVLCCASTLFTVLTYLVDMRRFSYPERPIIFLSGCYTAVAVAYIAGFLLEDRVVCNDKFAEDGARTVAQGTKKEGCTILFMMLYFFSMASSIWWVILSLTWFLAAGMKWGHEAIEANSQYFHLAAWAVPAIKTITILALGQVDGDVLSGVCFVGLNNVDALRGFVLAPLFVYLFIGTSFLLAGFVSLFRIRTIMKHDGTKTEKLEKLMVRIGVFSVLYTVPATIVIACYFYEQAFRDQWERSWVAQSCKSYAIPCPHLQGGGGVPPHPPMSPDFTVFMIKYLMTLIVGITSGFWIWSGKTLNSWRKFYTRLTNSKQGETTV

[2] = molecular target: Frizzled1-GFP (Rattus norvegicus, UniProt Q08463); assay: Image-based Frizzled1-GFP internalization assay (primary screening assay) in Fzd1GFP-U2OS cells; type: cell-based
Method: as §1
The plates were incubated overnight at 37° C. in 5% CO2. […]
To measure the number of the internalized vesicles per cell, cytosol was carefully traced to exclude cell membrane. […] The number of internalized vesicles per cell was counted by the Metamorph software. More than 30 cells per sample were analyzed to obtain statistical significance. […]
To determine the time-course of internalization for Frizzled1-GFP receptors, the accumulation of cytosolic puncta/vesicles was measured (FIG. 4A-4E). Internalization was assessed by counting the number of Frizzled1-GFP containing vesicles in the cytosol using the computer program Metamorph, and the results are presented in the graph for the given times (0 hr, n=51 cells; 1 hr, n=69; 2 hr, n=32; 4 hr, n=55, and 6 hr, n=61). […]

## O=C(Nc1ccccc1)c1ccccc1 [Compound 1-5, benzanilide]
[1]
  IC50: > 12.5 µM
[2]
  Primary assay at 12.5 μM: I
